These results are taken from PMC7693064 (American Journal of Hematology, 2020).

One test concerns subjects with PNH. The experiment in a line: Hemolytic markers. It is filed as in vivo, human. The note with it: eculizumab treatment before pegcetacoplan.
The test system of a further test is PNH RBCs. The settings on record: patients with PNH treated with eculizumab; cited from earlier work.
The test system of the next test is patients with PNH. The settings on record: 141 patients with PNH, eculizumab for ≥13 months; cited from earlier work.

On to “eculizumab: anti‐C5 humanized monoclonal antibody”, for which the “Lactate dehydrogenase levels at baseline” value with subjects with PNH was “well controlled”. Also, the “Percentage of C3 fragment-positive PNH RBCs, median” value in the test with PNH RBCs was 22.6%. In addition, in the test on patients with PNH, the “Patients who remained anemic” value is given as 72% and the “Patients who required ≥1 transfusion per year” value is 36%.
